We go through 1 compound from BindingDB's records for doi:10.1021/jm0009181 (National Center For Genetic Engineering and Biotechnology …, 2000).

Sequences of proteins named here, by UniProt entry; tags and fusion partners are left off.
UniProt A7UD81, whole entry: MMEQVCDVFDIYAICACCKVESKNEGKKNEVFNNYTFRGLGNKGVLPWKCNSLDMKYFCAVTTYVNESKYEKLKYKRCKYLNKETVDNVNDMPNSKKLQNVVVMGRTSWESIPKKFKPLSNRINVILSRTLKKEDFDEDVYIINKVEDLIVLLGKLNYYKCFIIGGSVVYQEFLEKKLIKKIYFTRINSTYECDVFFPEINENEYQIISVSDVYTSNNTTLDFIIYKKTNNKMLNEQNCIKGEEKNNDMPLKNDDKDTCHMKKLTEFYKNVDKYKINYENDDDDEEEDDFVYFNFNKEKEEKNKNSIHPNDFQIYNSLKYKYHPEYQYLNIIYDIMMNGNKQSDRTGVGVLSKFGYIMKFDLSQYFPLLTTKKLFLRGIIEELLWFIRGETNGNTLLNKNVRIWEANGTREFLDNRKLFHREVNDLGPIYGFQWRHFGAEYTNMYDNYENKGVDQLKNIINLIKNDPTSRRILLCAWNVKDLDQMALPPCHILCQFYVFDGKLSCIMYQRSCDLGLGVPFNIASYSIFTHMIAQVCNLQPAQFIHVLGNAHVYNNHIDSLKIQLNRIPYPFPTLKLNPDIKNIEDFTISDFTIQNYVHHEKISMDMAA

pKi: −log10 of the molar value.

This assay concerns the target Bifunctional dihydrofolate reductase-thymidylate synthase (Plasmodium falciparum, UniProt A7UD81). The assay is described as follows: Evaluated for inhibition constant (Ki wt) against Wild-type dihydrofolate reductase of Plasmodium falciparum.

By pKi is commonly meant −log10 of the Ki, conventionally taken in molar units. Low values mean a large Ki, high ones a small Ki. `CC1(C)N=C(N)N=C(N)N1c1cccc(Cl)c1` [1-(3-chlorophenyl)-6,6-dimethyl-1,6-dihydro-1,3,5-triazine-2,4-diamine] showed a pKi of 8.43.
